Laboratory results published in ChEMBL document CHEMBL6121003, “Design, synthesis, and pharmacological evaluation of triazine-based PI3K/mTOR inhibitors for the potential treatment of non-small cell lung cancer” (Eur J Med Chem, 2025).
Activity calls are given as the source filed them. No cut-off for these calls is given here.

Amino acid sequences for entries named in this document (tags omitted).
UniProt P42336, whole entry: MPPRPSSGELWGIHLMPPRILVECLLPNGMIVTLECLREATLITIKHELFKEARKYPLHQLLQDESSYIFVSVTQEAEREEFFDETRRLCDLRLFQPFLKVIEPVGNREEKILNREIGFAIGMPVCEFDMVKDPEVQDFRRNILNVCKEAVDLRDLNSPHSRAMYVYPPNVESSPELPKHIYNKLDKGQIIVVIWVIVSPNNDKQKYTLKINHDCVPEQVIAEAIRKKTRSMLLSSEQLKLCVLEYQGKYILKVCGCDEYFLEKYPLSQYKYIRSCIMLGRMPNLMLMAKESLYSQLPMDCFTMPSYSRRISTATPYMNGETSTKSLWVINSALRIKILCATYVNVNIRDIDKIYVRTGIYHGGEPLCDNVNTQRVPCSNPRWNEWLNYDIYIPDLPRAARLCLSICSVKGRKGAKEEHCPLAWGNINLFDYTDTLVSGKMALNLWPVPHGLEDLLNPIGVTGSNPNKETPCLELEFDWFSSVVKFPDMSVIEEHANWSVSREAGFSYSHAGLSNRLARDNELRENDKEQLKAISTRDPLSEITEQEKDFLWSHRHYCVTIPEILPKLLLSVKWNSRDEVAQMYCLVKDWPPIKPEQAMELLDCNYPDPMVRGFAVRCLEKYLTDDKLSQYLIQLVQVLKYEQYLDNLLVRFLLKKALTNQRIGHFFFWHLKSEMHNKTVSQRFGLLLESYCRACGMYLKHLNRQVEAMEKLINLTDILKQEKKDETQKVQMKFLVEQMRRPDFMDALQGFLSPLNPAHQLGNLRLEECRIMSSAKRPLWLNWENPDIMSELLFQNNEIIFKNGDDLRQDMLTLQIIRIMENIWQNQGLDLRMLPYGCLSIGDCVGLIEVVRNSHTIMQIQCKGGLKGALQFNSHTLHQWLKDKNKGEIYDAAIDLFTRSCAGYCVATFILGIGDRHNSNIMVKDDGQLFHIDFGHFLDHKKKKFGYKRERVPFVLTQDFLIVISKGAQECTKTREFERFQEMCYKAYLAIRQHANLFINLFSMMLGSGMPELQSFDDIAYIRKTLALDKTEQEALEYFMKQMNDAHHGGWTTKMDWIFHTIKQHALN

Each compound was assayed against Phosphatidylinositol 4,5-bisphosphate 3-kinase catalytic subunit alpha isoform (Homo sapiens, UniProt P42336). Conditions: dose 1.5 µM, time 1.0 hrs.

SMILES | inhibition [%]
Fc1ccc(NC(=S)Nc2ccc(-c3nc(N4CCOCC4)nc(N4CCOCC4)n3)cc2)c(F)c1 | < 70
Fc1ccc(NC(=S)Nc2ccc(-c3nc(N4CCOCC4)nc(N4CCOCC4)n3)cc2)cc1 | < 70
S=C(Nc1ccc(Cl)cc1)Nc1ccc(-c2nc(N3CCOCC3)nc(N3CCOCC3)n2)cc1 | < 70
Fc1ccc(NC(=S)Nc2ccc(-c3nc(N4CCOCC4)nc(N4CCOCC4)n3)cc2)c(Cl)c1 | < 70
COc1ccc(NC(=S)Nc2ccc(-c3nc(N4CCOCC4)nc(N4CCOCC4)n3)cc2)cc1OC | < 70
S=C(Nc1ccc(-c2nc(N3CCOCC3)nc(N3CCOCC3)n2)cc1)Nc1cccnc1 | > 70
N#Cc1cccc(NC(=S)Nc2ccc(-c3nc(N4CCOCC4)nc(N4CCOCC4)n3)cc2)c1 | < 70
S=C(Nc1ccc(-c2nc(N3CCOCC3)nc(N3CCOCC3)n2)cc1)Nc1ccc(Cl)c(Cl)c1 | < 70
S=C(NCc1ccccc1)Nc1ccc(-c2nc(N3CCOCC3)nc(N3CCOCC3)n2)cc1 | < 70
Cc1cccc(NC(=S)Nc2ccc(-c3nc(N4CCOCC4)nc(N4CCOCC4)n3)cc2)c1 | < 70
N#Cc1ccc(NC(=S)Nc2ccc(-c3nc(N4CCOCC4)nc(N4CCOCC4)n3)cc2)cc1 | < 70
CC(C)(C)c1ccc(NC(=S)Nc2ccc(-c3nc(N4CCOCC4)nc(N4CCOCC4)n3)cc2)cc1 | < 70
Fc1ccc(NC(=S)Nc2ccc(-c3nc(N4CCOCC4)nc(N4CCOCC4)n3)cc2)cc1F | < 70
FC(F)(F)c1ccc(NC(=S)Nc2ccc(-c3nc(N4CCOCC4)nc(N4CCOCC4)n3)cc2)cc1 | < 70
S=C(Nc1ccccc1)Nc1ccc(-c2nc(N3CCOCC3)nc(N3CCOCC3)n2)cc1 | < 70
COc1ccc(NC(=S)Nc2ccc(-c3nc(N4CCOCC4)nc(N4CCOCC4)n3)cc2)cc1 | < 70
CC(=O)c1ccc(NC(=S)Nc2ccc(-c3nc(N4CCOCC4)nc(N4CCOCC4)n3)cc2)cc1 | < 70
Cc1ccc(NC(=S)Nc2ccc(-c3nc(N4CCOCC4)nc(N4CCOCC4)n3)cc2)cc1 | < 70

These compounds were tested on HCC827 (assay: Antitumor activity against human HCC827 cells xenografted in nude male Balb/c mouse model assessed as tumor growth inhibition at 20 mg/kg, po administered daily for 2 weeks). Conditions: not given.
Format: functional, organism-based

SMILES | Activity
CN(C)C1CCN(C(=O)c2ccc(NC(=O)Nc3ccc(-c4nc(N5CCOCC5)nc(N5CCOCC5)n4)cc3)cc2)CC1 [GEDATOLISIB] | inactive
